Reference: US11214624

Molecular target: microtubule (in vitro reconstituted, taxol-stabilised)
Test: cell-based or functional assay

- % of gliding microtubules (n = 50), ATP: 85.5%
- Maximum gliding speed, ATP: 0.13 µm/min
- Mean gliding speed, ATP: 0.09 µm/min
Substance: His-p68-CaM fusion protein (Histidine-tagged p68-CaM, expressed in E. coli) (from UniProt P0DP23 1-149)
